# scFv variants of Ab-14 (light chain) against a SARS-CoV-2 spike peptide

The measurements come from Engelhart et al. 2022 (doi:10.1038/s41597-022-01779-4) through the FLAb antibody collection.

Antigen: PDVDLGDISGINAS, a 14-residue peptide of the SARS-CoV-2 spike HR2 region.

Each scFv is VH, a 15-residue (Gly4Ser)3 linker, VL, as in the parent Ab-14, and differs from it in the CDRs of the light chain only.
VH: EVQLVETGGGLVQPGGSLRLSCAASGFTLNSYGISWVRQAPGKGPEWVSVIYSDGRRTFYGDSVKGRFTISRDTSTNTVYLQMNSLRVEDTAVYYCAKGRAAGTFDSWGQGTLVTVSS
VL: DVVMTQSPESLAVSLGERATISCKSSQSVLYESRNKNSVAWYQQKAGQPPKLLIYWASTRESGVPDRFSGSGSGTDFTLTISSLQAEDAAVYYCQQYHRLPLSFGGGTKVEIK

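The parent was found by panning a naive human phage display library on the peptide. Library AAYL50 holds single substitutions and randomly drawn double and triple substitutions in the CDRs. Affinity was read by AlphaSeq, a pooled yeast mating assay with surface-displayed partners. Pairs that bind mate more often; barcode pairs of the diploids are counted by sequencing. Read counts were normalised to the haploid input and turned into Kd by a linear fit to BCL2-family pairs of known affinity, for each replicate. The assay was run in three technical replicates.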

Variants are written as CDR1, CDR2 and CDR3 of the light chain (limits as in the source). Parent: KSSQSVLYESRNKNSVA, WASTRES, QQYHRLPLS.
Scale: log10 of Kd in nM, estimated from mating counts; low values are strong binders.
A mean of the replicates is given; it leaves out those without a signal.
"nd" means that the variant was in the library but no mating with the target was seen in any replicate; the authors take this as a sign of poor binding, and no number exists.

With KSSQSRLYESRNKNSVA | WASTRES | QQGHRLPLH the result was nd (0 of 3 replicates; controls 0 of 9).
With KSSPSVLYESRNKNHVK | WASTRES | QQYHRLPLS the result was nd (0 of 3 replicates; controls 3 of 9).
With KSWQSVLYESRNFNSVA | WMSTRES | QQYHRLPLS the result was 3.74 (1 of 3 replicates; controls 0 of 9).
With KSYQSVLYELRNKNSVA | WASTRES | QQFHRLPLS the result was 4.09 (1 of 3 replicates; controls 2 of 9).
With KSSQSVLYESRNKNSVA | WAWTRES | QFYHRLPLT the result was 2.82 (1 of 3 replicates; controls 1 of 9).
With YSSQSVLYEKRNKNSVA | WGSTRES | QQYHRLPLS the result was 1.41 (3 of 3 replicates; controls 0 of 9).
With KSSQSVSYHSRNVNSVA | WASTRES | QQYHRLPLS the result was 0.95 (3 of 3 replicates; controls 4 of 9).
With KSSQSVLYESRNKRSVA | WASTRES | QLYHKLPLS the result was 2.47 (3 of 3 replicates; controls 2 of 9).
With KSSQSKQYESRNKNSVA | WASTRES | QQYHCLPLS the result was 1.13 (3 of 3 replicates; controls 3 of 9).
With KFSQSVLYESRNKNSVA | WASTRSS | QQYHRLYLS the result was nd (0 of 3 replicates; controls 0 of 9).
With KSSQSVLYEHRNKNSVA | WASTRES | QQYGRDPLS the result was 3.48 (3 of 3 replicates; controls 2 of 9).
With KSHQSVLYESRNKNSVA | WASWREK | QQYHRLPLS the result was 1.97 (3 of 3 replicates; controls 4 of 9).
With KSSQSVLYESRNKNSVA | WYSTRES | QQYHRRPLS the result was 4.23 (2 of 3 replicates; controls 2 of 9).
With KSYQSVLYESRNKNSVA | WASTRES | QQYIRLPLS the result was 2.06 (3 of 3 replicates; controls 3 of 9).
With KSSQSVLYEQRNCNSVA | WASTREN | QQYHRLPLS the result was 0.80 (3 of 3 replicates; controls 2 of 9).

Second part, the sequence after the result:

Read-out 2.84 (3 of 3 replicates; controls 1 of 9), from WSSHSVLYESRNKNSVA | WASTRES | QQYHRFPLS.
Read-out 1.42 (3 of 3 replicates; controls 5 of 9), from KSSQSVLYESRNKMSVA | WASTRES | QQYHQLPLS.
Read-out 1.94 (3 of 3 replicates; controls 2 of 9), from KSSQSVLNESRNKNSVA | WASWRES | QFYHRLPLS.
Read-out nd (0 of 3 replicates; controls 0 of 9), from KSSQSILYESRPKNSVA | WASTRES | QQWHRLPLS.
Read-out 4.99 (1 of 3 replicates; controls 2 of 9), from KSSQSVLYESRNKWIVA | WAQTRES | QQYHRLPLS.
Read-out nd (0 of 3 replicates; controls 0 of 9), from KSSRNVLYESRNKNSVA | WASTMES | QQYHRLPLS.
Read-out 0.78 (3 of 3 replicates; controls 3 of 9), from KSSQSVPYESRNKNSVA | WASLRES | QQYHRLPLS.
Read-out 2.36 (1 of 3 replicates; controls 0 of 9), from KSSRSVLYESRNKGSVA | WASTPES | QQYHRLPLS.
Read-out 4.34 (2 of 3 replicates; controls 7 of 9), from KSSQSVLYESRCKNSVA | WASTREY | QQYHRPPLS.
Read-out nd (0 of 3 replicates; controls 0 of 9), from KSHQSVLYESRNKNSCA | WASTRES | QQYHRLLLS.
Read-out 2.57 (3 of 3 replicates; controls 5 of 9), from KSSQSVLYESRNKNSVA | FASTRES | QQPHELPLS.
Read-out 2.26 (2 of 3 replicates; controls 0 of 9), from TSFQSVLYESRMKNSVA | WASTRES | QQYHRLPLS.
Read-out 3.72 (1 of 3 replicates; controls 1 of 9), from KSSQSVLYESRNKRSVA | WASGRES | QQYHRLPES.
Read-out nd (0 of 3 replicates; controls 0 of 9), from KSSQSVLFESRNKNSAA | WASTRES | QQLHRLPLS.
Read-out 2.66 (1 of 3 replicates; controls 0 of 9), from KSSQTVLYPSRNKNSVA | WASTRES | QQYHRVPLS.

The first 2 variants above that were never detected:

{"CDR-L1": "KSSQSRLYESRNKNSVA", "CDR-L2": "WASTRES", "CDR-L3": "QQGHRLPLH", "mean, log10 nM": "nd", "seen in": "0 of 3", "signal with controls": "0 of 9"}
{"CDR-L1": "KSSPSVLYESRNKNHVK", "CDR-L2": "WASTRES", "CDR-L3": "QQYHRLPLS", "mean, log10 nM": "nd", "seen in": "0 of 3", "signal with controls": "3 of 9"}

Three control strains display no target. For library AAYL50, 18% of the pairings with them gave a signal, with a median of 4.19 and one signal in twenty below 2.99, so weak values seen in few replicates may be background. Also given: how often the same scFv was detected with the empty control strains.
Parent in this assay: reference entry 0.65, copy in this library 1.68.